For this test, the target named is Cannabinoid receptor 2 (Homo sapiens, UniProt P34972).

Protein sequences, listed by entry. Tags and fused reporters are not part of them.
UniProt P34972, whole entry: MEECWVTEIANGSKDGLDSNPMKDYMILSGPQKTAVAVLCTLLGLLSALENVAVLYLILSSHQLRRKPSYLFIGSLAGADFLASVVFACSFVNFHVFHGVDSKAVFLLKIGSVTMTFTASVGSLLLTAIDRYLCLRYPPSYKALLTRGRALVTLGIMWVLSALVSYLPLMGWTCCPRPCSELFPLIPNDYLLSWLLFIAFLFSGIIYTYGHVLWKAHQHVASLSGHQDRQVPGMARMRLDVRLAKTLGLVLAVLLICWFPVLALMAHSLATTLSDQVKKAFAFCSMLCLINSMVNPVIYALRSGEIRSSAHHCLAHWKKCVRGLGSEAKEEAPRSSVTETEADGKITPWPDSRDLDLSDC

For orientation: Ki means the dissociation constant of the complex between target and ligand, obtained from inhibition or displacement.

Some compounds may have been tested in ways that are not shown here.

Turning to `CCOc1ccc(Cc2nc3cc(C(=O)N(CC)CC)ccc3n2CCNc2c3c(nc4ccccc24)CCCC3)cc1`, affinity was put at a Ki of 39 nM.
